# In US20190209472A1, “FORMULATIONS FOR DERMAL DELIVERY OF POLYMER CONJUGATES OF INDOLOCARBAZOLE COMPOUNDS WITH REDUCED EXPOSURE” (Sienna Biopharmaceuticals, Inc., priority 2017, published 2019):
# Columns and labels:
# [1] = tested on: subjects with pruritus associated with psoriasis vulgaris; test: Phase 1b maximal use study: ECG including QTcF assessment; type: in vivo, human
# Protocol: On Study Days 1 and 29 subjects will be asked to assume the supine position and remain quiet but awake for at least 20 minutes around each nominal electrocardiogram (ECG) extraction point (15 minutes before the time point until 5 minutes after each time point). Once the ECG extraction is started (time: 0 h), the subject should remain at rest in the supine position for the next 5 minutes, with the exception of PK draws. The extraction time points from the continuous ECG monitoring of the QT interval corrected for heart rate (QTc) analysis are as follows: predose (within 1 hour of the start of dosing), and 0.5, 0.75, 1, 2, 4, 8, and 12 hours after the end of the SNA-120 application.
# The average of triplicate ECG measurements from each time point will serve as each subject's QT value. Electrocardiograms will be measured using semi-automated methods for the ECG intervals. Annotations will be made on the global superimposed median beat. The Mortara eScribe software (or equivalent) will be used for the measurement. Interpretations for each ECG will be made by a board-certified cardiologist.
# [2] = Phase I study: CT327 and CT327 amide in human plasma by HPLC-FLD; type: in vivo; conditions: 1 g of 0.5% w/w CT327 ointment bid, individual subjects
# Protocol: (§1) Sixteen patients were enrolled in 2 treatment groups.
# (§2) The analytical procedure involved extraction of CT327 and CT327 amide from human plasma by a liquid-liquid extraction. The human plasma samples were analyzed using a validated HPLC method with fluorescence detection (FLD). […] Concentrations of the calibration curve standards, quality control samples and study samples were determined by the method of (1/x^2) weighted least squares linear regression.
# A total of 240 human plasma samples were analyzed. […] A further 80 samples were received from subjects who had been dosed with placebo; these were not analyzed. All samples were stored at −80° C. (±10° C.).
# (§3) The extraction procedure involved a liquid-liquid extraction. A portion of the extract was injected onto the HPLC-FLD system.
# (§4) For calibration curve generation, duplicate calibrators at seven different concentrations, a human plasma blank and a human plasma blank plus internal standard were prepared for each batch. The calibration curves were produced by plotting the analyte to internal standard peak area ratios (y-axis) versus the concentration. The gradient and the intercept were determined by (1/x^2) weighted least squares linear regression.
# (§5) Calculated concentration of analyte=((PAR-C)/M), where: PAR=analyte to internal standard peak area ratio; C=intercept; and M=gradient.
# [3] = Phase I study: CT327 and CT327 amide in human urine by HPLC-FLD; type: in vivo; conditions: per subject, 1 g dose of 0.5% w/w CT327
# Protocol: as §1
# as §2, with “urine” for “plasma”
# A total of 84 human urine samples were analyzed. […] A further 28 samples were received from subjects who had been dosed with placebo; these were not analyzed. All samples were stored at −80° C. (±10° C.).
# as §3
# as §4, with “urine” for “plasma”
# as §5
# [4] = tested on: subjects with pruritus associated with psoriasis vulgaris
# [5] = tested on: patients with stable psoriasis vulgaris; conditions: CT327 treatment group
# [6] = tested on: subjects with pruritus associated with psoriasis vulgaris; test: Phase 1b maximal use study: adverse events and tolerability; conditions: in vivo
# [7] = over 12 hours on Day 1, Day/Hour 1/0.75
# [8] = over 12 hours on Day 1, Day/Hour 1/12
# [9] = over 12 hours on Day 29, Day/Hour 29/1
# [10] = over 12 hours on Day 29, Day/Hour 29/8
# [11] = over 12 hours on Day 29, Day/Hour 29/12
substance,measurement,setting,value
"(9S, 10R, 12R)-10-(3′-mPEG2000-1′,3′-oxazolidine-2′,4′-dione)-2,3,9,10,11,12-hexahydro-9-methyl-1-oxo-9,12-epoxy-1H-diindolo[1,2,3-fg:3′,2′,1′-k,l]pyrrolo[3,4-i][1,6] benzodiazocine] [CT327]",ECG effect,"[1]; 30 patients, up to 15 time points",no associated clinically significant ECG changes
same,Holter ECG PR: Maximum mean (SD) change from baseline,[1]; [7],2.33 (6.66) msec
same,Holter ECG QRS: Maximum mean (SD) change from baseline,[1]; [7],1.13 (3.85) msec
same,Holter ECG HR: Minimum mean change from baseline,"[1]; over 12 hours on Day 1, Day/Hour 1/1",−5.12 bpm
same,Holter ECG QTcF: Maximum mean (SD) change from baseline,"[1]; over 12 hours on Day 1, Day/Hour 1/2",2.93 (9.63) msec
same,Holter ECG QRS: Minimum mean change from baseline,"[1]; over 12 hours on Day 1, Day/Hour 1/8",-1.32 ms
same,Holter ECG PR: Minimum mean change from baseline,[1]; [8],-1.31 ms
same,Holter ECG QTcF: Minimum mean change from baseline,[1]; [8],-5.12 ms
same,Holter ECG HR: Maximum mean (SD) change from baseline,"[1]; over 12 hours on Day 1, Day/Hour 1/12^",8.14 (5.68) bpm
same,Holter ECG PR: Maximum mean (SD) change from baseline,"[1]; over 12 hours on Day 29, Day/Hour 29/0.5",3.90 (8.61) msec
same,Holter ECG QTcF: Maximum mean (SD) change from baseline,"[1]; over 12 hours on Day 29, Day/Hour 29/0.75",5.98 (10.45) msec
same,Holter ECG HR: Minimum mean change from baseline,[1]; [9],−4.25 bpm
same,Holter ECG QRS: Maximum mean (SD) change from baseline,[1]; [9],1.46 (5.23) msec
same,Holter ECG HR: Maximum mean (SD) change from baseline,[1]; [10],9.50 (9.73) bpm
same,Holter ECG QRS: Minimum mean change from baseline,[1]; [10],-1.90 ms
same,Holter ECG PR: Minimum mean change from baseline,[1]; [11],0.39 ms
same,Holter ECG QTcF: Minimum mean change from baseline,[1]; [11],-4.97 ms
same,Standard ECG PR: Maximum mean (SD) change from baseline,"[1]; standard ECG, Day 8",2.4 (13.5) msec
same,Standard ECG HR: Maximum mean (SD) change from baseline,"[1]; standard ECG, Day 8, 0.5% (w/w) SNA-120",3.1 (11.3) bpm
same,Standard ECG PR: Minimum mean change from baseline,"[1]; standard ECG, Day 15",-1.5 ms
same,Standard ECG QRS: Minimum mean change from baseline,"[1]; standard ECG, Day 15",-0.5 ms
same,Standard ECG QTcF: Minimum mean change from baseline,"[1]; standard ECG, Day 15",1.7 ms
same,Standard ECG QRS: Maximum mean (SD) change from baseline,"[1]; standard ECG, Day 43",4.0 (6.6) msec
same,Standard ECG QTcF: Maximum mean (SD) change from baseline,"[1]; standard ECG, Day 43",9.1 (16.4) msec
same,Standard ECG HR: Minimum mean change from baseline,"[1]; standard ECG, Day 43, 0.5% (w/w) SNA-120",−0.1 bpm
same,CT327 Concentration (ngml^−1),[2]; Day 1 0.5 h,"NQ (concentrations below the LLOQ, and thus were reported as non-quantifiable (NQ))"
same,CT327 Concentration (ngml^−1),[2]; Day 1 1 h,"NQ (concentrations below the LLOQ, and thus were reported as non-quantifiable (NQ))"
same,CT327 Concentration (ngml^−1),[2]; Day 1 2 h,"NQ (concentrations below the LLOQ, and thus were reported as non-quantifiable (NQ))"
same,CT327 Concentration (ngml^−1),[2]; Day 1 4 h,"NQ (concentrations below the LLOQ, and thus were reported as non-quantifiable (NQ))"
same,CT327 Concentration (ngml^−1),[2]; Day 1 12 h,"NQ (concentrations below the LLOQ, and thus were reported as non-quantifiable (NQ))"
same,CT327 Concentration (ngml^−1),[2]; Day 1 predose,"NQ (concentrations below the LLOQ, and thus were reported as non-quantifiable (NQ))"
same,CT327 Concentration (ngml^−1),[2]; Day 3 0.5 h,"NQ (concentrations below the LLOQ, and thus were reported as non-quantifiable (NQ))"
same,CT327 Concentration (ngml^−1),[2]; Day 3 1 h,"NQ (concentrations below the LLOQ, and thus were reported as non-quantifiable (NQ))"
same,CT327 Concentration (ngml^−1),[2]; Day 3 2 h,"NQ (concentrations below the LLOQ, and thus were reported as non-quantifiable (NQ))"
same,CT327 Concentration (ngml^−1),[2]; Day 3 4 h,"NQ (concentrations below the LLOQ, and thus were reported as non-quantifiable (NQ))"
same,CT327 Concentration (ngml^−1),[2]; Day 3 12 h,"NQ (concentrations below the LLOQ, and thus were reported as non-quantifiable (NQ))"
same,CT327 Concentration (ngml^−1),[2]; Day 3 predose,"NQ (concentrations below the LLOQ, and thus were reported as non-quantifiable (NQ))"
same,CT327 Concentration (ngml^−1),[2]; Day 7 0.5 h,"NQ (concentrations below the LLOQ, and thus were reported as non-quantifiable (NQ))"
same,CT327 Concentration (ngml^−1),[2]; Day 7 1 h,"NQ (concentrations below the LLOQ, and thus were reported as non-quantifiable (NQ))"
same,CT327 Concentration (ngml^−1),[2]; Day 7 2 h,"NQ (concentrations below the LLOQ, and thus were reported as non-quantifiable (NQ))"
same,CT327 Concentration (ngml^−1),[2]; Day 7 4 h,"NQ (concentrations below the LLOQ, and thus were reported as non-quantifiable (NQ))"
same,CT327 Concentration (ngml^−1),[2]; Day 7 8 h,"NQ (concentrations below the LLOQ, and thus were reported as non-quantifiable (NQ))"
same,CT327 Concentration (ngml^−1),[2]; Day 7 12 h,"NQ (concentrations below the LLOQ, and thus were reported as non-quantifiable (NQ))"
same,CT327 Concentration (ngml^−1),[2]; Day 7 24 h,"NQ (concentrations below the LLOQ, and thus were reported as non-quantifiable (NQ))"
same,CT327 Concentration (ngml^−1),[2]; Day 7 predose,"NQ (concentrations below the LLOQ, and thus were reported as non-quantifiable (NQ))"
same,CT327 Concentration,[3]; Day 1 0-12 h,"NQ (concentrations below the LLOQ, and thus were reported as non-quantifiable (NQ))"
same,CT327 Concentration,[3]; Day 1 predose,"NQ (concentrations below the LLOQ, and thus were reported as non-quantifiable (NQ))"
same,CT327 Concentration,[3]; Day 3 0-12 h,"NQ (concentrations below the LLOQ, and thus were reported as non-quantifiable (NQ))"
same,CT327 Concentration,[3]; Day 3 predose,"NQ (concentrations below the LLOQ, and thus were reported as non-quantifiable (NQ))"
same,CT327 Concentration,[3]; Day 7 0-12 h,"NQ (concentrations below the LLOQ, and thus were reported as non-quantifiable (NQ))"
same,CT327 Concentration,[3]; Day 7 12-24 h,"NQ (concentrations below the LLOQ, and thus were reported as non-quantifiable (NQ))"
same,CT327 Concentration,[3]; Day 7 predose,"NQ (concentrations below the LLOQ, and thus were reported as non-quantifiable (NQ))"
same,AE related to study drug: [events],[4]; N = 30,1
same,"AE related to study drug: subjects, %",[4]; N = 30,3.3%
same,"AE resulting in discontinuation: subjects, %",[4]; N = 30,0 (0) %
same,AE: [events],[4]; N = 30,12
same,"AE: subjects, %",[4]; N = 30,30%
same,Number of adverse events,[4]; N = 30,12
same,"SAE: subjects, %",[4]; N = 30,0 (0) %
same,"Severe AE: subjects, %",[4]; N = 30,0 (0) %
same,Subjects reporting adverse events,[4]; N = 30,9
same,"Discontinued due to AE, (%)","[4]; Phase 1b maximal use study, 30 subjects treated",(0) %
same,Adverse events deemed related to study drug,[4]; mild pruritus,one
same,Occurrences of headache (TEAE),[5],5
same,Patients reporting headache (TEAE),[5],25%
same,Patients reporting psoriasis as a TEAE,[5],16.7%
same,TEAEs of mild maximum intensity,[5],8
same,TEAEs of moderate maximum intensity,[5],2
same,Number of TEAEs,[5]; n=12,10
same,Patients reporting TEAEs,[5]; n=12,50%
same,"Mild TEAE, number of events [m]",[5]; topical ointment bid,8
same,"Mild TEAE, number of patients experiencing the event",[5]; topical ointment bid,5
same,"Mild TEAE, percentage of patients with the event",[5]; topical ointment bid,41.7%
same,"Moderate TEAE, number of events [m]",[5]; topical ointment bid,2
same,"Moderate TEAE, number of patients experiencing the event",[5]; topical ointment bid,2
same,"Moderate TEAE, percentage of patients with the event",[5]; topical ointment bid,16.7%
same,"Related TEAE, number of events [m]",[5]; topical ointment bid,1
same,"Related TEAE, number of patients experiencing the event",[5]; topical ointment bid,1
same,"Related TEAE, percentage of patients with the event",[5]; topical ointment bid,8.3%
same,"SAE, number of patients experiencing the event",[5]; topical ointment bid,0
same,"Severe TEAE, number of patients experiencing the event",[5]; topical ointment bid,0
same,"TEAE leading to discontinuation, number of patients experiencing the event",[5]; topical ointment bid,0
same,"TEAE, number of events [m]",[5]; topical ointment bid,10
same,"TEAE, number of patients experiencing the event",[5]; topical ointment bid,6
same,"TEAE, percentage of patients with the event",[5]; topical ointment bid,50.0%
same,"Overall safety parameters (laboratory assessments, ECG, QTc duration, AEs)",[6],no associated clinically relevant changes
same,Tolerability,[6],well tolerated
